Values quoted from earlier work in publication PMC8599628 (Journal of clinical pharmacology, 2021).

Experiments:
[1] = cited from earlier work
[2] = cited from earlier work; for CL/F typical value: myelofibrosis patients

For `N#CC[C@H](C1CCCC1)n1cc(-c2ncnc3[nH]ccc23)cn1` [ruxolitinib], the “CL/F (mean)” value ([1]; 10 mg tablet, N = 16, %CV 40.6%) is given as 12.6 Lhr^−1, the “CL/F (mean)” value ([1]; 25 mg tablet, N = 47, %CV 29.8%) is given as 16.8 L/h and the “CL/F (mean)” value ([1]; 200 mg tablet, N = 48, %CV 29.6%) is given as 16.9 ± 5.01 L/h. The Ka [2] was 4.12 h⁻¹, the Q/F [2] was 2.53 L/h and the CL/F typical value ([2]; men) was 22.1 L/h. For the same molecule, the CL/F typical value ([2]; women) was 17.7 L/h.

Like-named read-outs stand apart in the source and are kept apart here.
